# ChEMBL document CHEMBL3879899, “Gastrin releasing peptide compounds” (2011)
# Amino acid sequences for entries named in this document (tags omitted). A change or cut given only in a name is not applied to a line headed by its entry.
# UniProt P30550: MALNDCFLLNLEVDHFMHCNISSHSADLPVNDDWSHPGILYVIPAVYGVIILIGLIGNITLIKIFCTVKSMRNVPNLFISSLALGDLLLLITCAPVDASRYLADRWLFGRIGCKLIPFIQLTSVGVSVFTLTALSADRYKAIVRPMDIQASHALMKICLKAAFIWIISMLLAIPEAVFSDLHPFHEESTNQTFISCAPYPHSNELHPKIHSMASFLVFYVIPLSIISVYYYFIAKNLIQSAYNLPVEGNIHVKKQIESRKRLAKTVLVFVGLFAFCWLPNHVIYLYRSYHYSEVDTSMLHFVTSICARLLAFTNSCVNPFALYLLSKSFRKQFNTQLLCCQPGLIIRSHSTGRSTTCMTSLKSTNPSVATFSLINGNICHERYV
# Biological target: Gastrin-releasing peptide receptor (Homo sapiens, UniProt P30550)
# Assay: Displacement of [125I]-BBN from GRPR in human PC3 cells after 1 hr by compuGamma counting or microplate scintillation counting method
# Format: cell-based, PC-3
row,IC50,SMILES
1,0.023 µM,CSCC[C@H](NC(=O)[C@H](CC(C)C)NC(=O)[C@H](Cc1cnc[nH]1)NC(=O)CNC(=O)[C@@H](NC(=O)[C@H](C)NC(=O)[C@H](Cc1c[nH]c2ccccc12)NC(=O)[C@H](CCC(N)=O)NC(CN)C(=O)NC(=O)CN1CCN(C(=O)CNC(=O)[C@H](CSCNC(C)=O)NC(=O)[C@H](CO)NC(=O)CN(C)C)CC1)C(C)C)C(N)=O (some centres not stated)
2,0.026 µM,CSCC[C@H](NC(=O)[C@H](CC(C)C)NC(=O)[C@H](Cc1cnc[nH]1)NC(=O)CNC(=O)[C@@H](NC(=O)[C@H](C)NC(=O)[C@H](Cc1c[nH]c2ccccc12)NC(=O)[C@H](CCC(N)=O)N[C@@H](CCCNC(=N)N)C(=O)NC(=O)CN1CCN(C(=O)CNC(=O)[C@H](CSCNC(C)=O)NC(=O)[C@H](CO)NC(=O)CN(C)C)CC1)C(C)C)C(N)=O
3,0.053 µM,CSCC[C@H](NC(=O)[C@H](CC(C)C)NC(=O)[C@H](Cc1cnc[nH]1)NC(=O)CNC(=O)[C@@H](NC(=O)[C@H](C)NC(=O)[C@H](Cc1c[nH]c2ccccc12)NC(=O)[C@H](CCC(N)=O)NC(=O)[C@H](CC(N)=O)NC(=O)CNC(=O)[C@H](CC(C)C)NC(=O)[C@H](CCCCNC(=O)c1ccc(NC(=O)CNC(=O)CN2CCN(CC(=O)O)CCN(CC(=O)O)CCN(CC(=O)O)CC2)cc1)NC(=O)[C@H](CCC(N)=O)NC(=O)[C@@H]1CCCN1)C(C)C)C(N)=O
4,0.013 µM,CSCC[C@H](NC(=O)[C@H](CC(C)C)NC(=O)[C@H](Cc1cnc[nH]1)NC(=O)CNC(=O)[C@@H](NC(=O)[C@H](C)NC(=O)[C@H](Cc1c[nH]c2ccccc12)NC(=O)[C@H](CCC(N)=O)NC(=O)[C@H](CCCCN)NC(=O)[C@H](CCCCN)NC(=O)CNC(=O)[C@H](CSCNC(C)=O)NC(=O)[C@H](CO)NC(=O)CN(C)C)C(C)C)C(N)=O
5,0.24 µM,CSCC[C@H](NC(=O)[C@H](CC(C)C)NC(=O)[C@H](CO)NC(=O)CNC(=O)[C@@H](NC(=O)[C@H](C)NC(=O)[C@H](Cc1c[nH]c2ccccc12)NC(=O)[C@H](CC(C)C)NC(=O)c1ccc(NC(=O)CNC(=O)CN2CCN(CC(=O)O)CCN(CC(=O)O)CCN(CC(=O)O)CC2)cc1)C(C)C)C(N)=O
6,0.017 µM,CSCC[C@H](NC(=O)[C@H](CC(C)C)NC(=O)[C@H](Cc1cnc[nH]1)NC(=O)CNC(=O)[C@@H](NC(=O)[C@H](C)NC(=O)[C@H](Cc1c[nH]c2ccccc12)NC(=O)[C@H](CCC(N)=O)NC(CN)C(=O)NC(=O)COCCOCCNC(=O)CNC(=O)[C@H](CSCNC(C)=O)NC(=O)[C@H](CO)NC(=O)CN(C)C)C(C)C)C(N)=O (some centres not stated)
7,0.0075 µM,CSCC[C@H](NC(=O)[C@H](CC(C)C)NC(=O)[C@H](Cc1cnc[nH]1)NC(=O)CNC(=O)[C@@H](NC(=O)[C@H](C)NC(=O)[C@H](Cc1c[nH]c2ccccc12)NC(=O)[C@H](CCC(N)=O)NC(=O)[C@H](CO)NC(=O)[C@H](CCCCN)NC(=O)CNC(=O)[C@H](CSCNC(C)=O)NC(=O)[C@H](CO)NC(=O)CN(C)C)C(C)C)C(N)=O
8,0.034 µM,CSCC[C@H](NC(=O)[C@H](CC(C)C)NC(=O)[C@H](Cc1cnc[nH]1)NC(=O)CNC(=O)[C@@H](NC(=O)[C@H](C)NC(=O)[C@H](Cc1c[nH]c2ccccc12)NC(=O)[C@H](CCC(N)=O)N[C@@H](CCCCN)C(=O)NC(=O)CN1CCN(CCNC(=O)CNC(=O)[C@H](CSCNC(C)=O)NC(=O)[C@H](CO)NC(=O)CN(C)C)CC1)C(C)C)C(N)=O
9,0.038 µM,CSCC[C@H](NC(=O)[C@H](CC(C)C)NC(=O)[C@H](Cc1cnc[nH]1)NC(=O)CNC(=O)[C@@H](NC(=O)[C@H](C)NC(=O)[C@H](Cc1c[nH]c2ccccc12)NC(=O)[C@H](CCC(N)=O)N[C@@H](CO)C(=O)NC(=O)CN1CCN(C(=O)CNC(=O)[C@H](CSCNC(C)=O)NC(=O)[C@H](CO)NC(=O)CN(C)C)CC1)C(C)C)C(N)=O
10,0.025 µM,CSCC[C@H](NC(=O)[C@H](CC(C)C)NC(=O)[C@H](Cc1cnc[nH]1)NC(=O)CNC(=O)[C@@H](NC(=O)[C@H](C)NC(=O)[C@H](Cc1c[nH]c2ccccc12)NC(=O)[C@H](CCC(N)=O)NC(=O)CNC(=O)CNC(=O)[C@H](CSCNC(C)=O)NC(=O)[C@H](CO)NC(=O)CN(C)C)C(C)C)C(N)=O

# Biological target: T1, Neuromedin-B receptor (Rattus norvegicus, UniProt P24053)
# T1 sequence (P24053 whole entry): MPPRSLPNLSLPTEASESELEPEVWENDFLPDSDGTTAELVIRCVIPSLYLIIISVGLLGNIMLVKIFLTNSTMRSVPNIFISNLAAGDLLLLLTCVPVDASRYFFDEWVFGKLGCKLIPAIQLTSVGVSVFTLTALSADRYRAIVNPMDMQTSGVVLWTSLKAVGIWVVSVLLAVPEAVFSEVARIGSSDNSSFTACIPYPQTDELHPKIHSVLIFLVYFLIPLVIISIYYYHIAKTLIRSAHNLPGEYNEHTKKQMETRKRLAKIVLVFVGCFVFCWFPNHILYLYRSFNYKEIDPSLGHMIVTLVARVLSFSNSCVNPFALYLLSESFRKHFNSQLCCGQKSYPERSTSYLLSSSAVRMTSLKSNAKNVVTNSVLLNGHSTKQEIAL
# Assay: Displacement of [125I]-NMB from NMB receptor in rat C6 cells
# Format: cell-based
row,IC50,SMILES
1,0.0022 µM,CSCC[C@H](NC(=O)[C@H](CC(C)C)NC(=O)[C@H](Cc1cnc[nH]1)NC(=O)CNC(=O)[C@@H](NC(=O)[C@H](C)NC(=O)[C@H](Cc1c[nH]c2ccccc12)NC(=O)[C@H](CCC(N)=O)NC(=O)[C@H](CCCCN)NC(=O)[C@H](CO)NC(=O)CNC(=O)[C@H](CSCNC(C)=O)NC(=O)[C@H](CO)NC(=O)CN(C)C)C(C)C)C(N)=O
2,0.00016 µM,CSCC[C@H](NC(=O)[C@H](Cc1ccccc1)NC(=O)[C@H](Cc1cnc[nH]1)NC(=O)CNC(=O)[C@@H](NC(=O)[C@H](C)NC(=O)[C@H](Cc1c[nH]c2ccccc12)NC(=O)[C@H](CC(C)C)NC(=O)[C@H](CC(N)=O)NC(=O)CNC(=O)[C@@H](N)Cc1ccc(O)cc1)[C@@H](C)O)C(N)=O
